# Experiments:
# anti-T4 [1] = assay: % binding of 125I-T4 to sticks coated with anti-T4 or with anti-digoxin and anti-T4 (Example 5); design: species or system rabbit
# Description: (§1) 12×75 mm commercially available polystyrene tubes were utilized. […] The tubes and sticks were then washed.
# (§2) The tubes and sticks were washed and air dried. […] The final coating procedure could utilize any rabbit antibody.
# This example describes the immobilizing of two antibodies to sticks using rabbit anti-digoxin and rabbit anti-thyroxin as the antibodies.
# Nine fin sticks were coated with IgG and anti-antibody as described in Example 1. Anti-digoxin and anti-thyroxin were mixed prior to coating the anti-antibody coated sticks. These two antibodies were then immunologically bound to the anti-antibody coated sticks using the same buffer and for a period of 24 hours at room temperature. The sticks were then washed and dried after which they could be utilized to determine the amount of digoxin and thyroxin in a fluid sample.
# Nine fin sticks were coated with (1) anti-T4 as described in Example 1 and (2) anti-digoxin and anti-T4 as described in Example 2. […] A stick coated with (1) anti-T4 and (2) anti-digoxin and anti-T4 were inserted in the tubes.
# anti-T4 [2] = assay: % binding of 125I-T4 to anti-T4 coated tubes (Example 3); design: species or system rabbit
# Method: as §1, §2
# Two series were conducted for this example.
structure (smiles),measurement,setting,value
"N[C@@H](Cc1cc(I)c(Oc2cc(I)c(O)c([125I])c2)c(I)c1)C(=O)O [^125 I-T4, ^125 I-Thyroxin]",% Binding of ^125 I-T4,"anti-T4 [1]; (1) anti-T4 stick, 0 μg T4, 1 h room temp",56%
same,% Binding of ^125 I-T4,"anti-T4 [1]; (1) anti-T4 stick, 2.5 μg T4",37%
same,% Binding of ^125 I-T4,"anti-T4 [1]; (1) anti-T4 stick, 5.0 μg T4",24%
same,% Binding of ^125 I-T4,"anti-T4 [1]; (1) anti-T4 stick, 25.0 μg T4",7%
same,% Binding of ^125 I-T4,"anti-T4 [1]; (2) anti-digoxin and anti-T4 stick, 0 μg T4",55%
same,% Binding of ^125 I-T4,"anti-T4 [1]; (2) anti-digoxin and anti-T4 stick, 2.5 μg T4",35%
same,% Binding of ^125 I-T4,"anti-T4 [1]; (2) anti-digoxin and anti-T4 stick, 5.0 μg T4",26%
same,% Binding of ^125 I-T4,"anti-T4 [1]; (2) anti-digoxin and anti-T4 stick, 25.0 μg T4",8%
same,% Binding of ^125 I-T4,"anti-T4 [2]; (1) no stick, 0 μg T4",36%
same,% Binding of ^125 I-T4,"anti-T4 [2]; (1) no stick, 2.5 μg T4",29%
same,% Binding of ^125 I-T4,"anti-T4 [2]; (1) no stick, 5.0 μg T4",23%
same,% Binding of ^125 I-T4,"anti-T4 [2]; (1) no stick, 10.0 μg T4",16%
same,% Binding of ^125 I-T4,"anti-T4 [2]; (1) no stick, 25.0 μg T4",8%
same,% Binding of ^125 I-T4,"anti-T4 [2]; (2) uncoated stick, 0 μg T4",31%
same,% Binding of ^125 I-T4,"anti-T4 [2]; (3) anti-digoxin coated stick, 0 μg T4",30%
same,% Binding of ^125 I-T4,"anti-T4 [2]; (3) anti-digoxin coated stick, 5.0 μg T4",20%
same,% Binding of ^125 I-T4,"anti-T4 [2]; (3) anti-digoxin coated stick, 25.0 μg T4",7%

# — US4378344A, “Method and apparatus for performing multiple, simultaneous in vitro diagnostic tests using a solid phase system” (priority 1979, dated 1983)
